The target of the assay is Metabotropic glutamate receptor 1 (Homo sapiens, UniProt Q13255).

Chains of the proteins cited; added tags and fusions are not shown. Lines headed by an entry give the natural chain unless they say otherwise; changes in a name come on top.
UniProt Q13255: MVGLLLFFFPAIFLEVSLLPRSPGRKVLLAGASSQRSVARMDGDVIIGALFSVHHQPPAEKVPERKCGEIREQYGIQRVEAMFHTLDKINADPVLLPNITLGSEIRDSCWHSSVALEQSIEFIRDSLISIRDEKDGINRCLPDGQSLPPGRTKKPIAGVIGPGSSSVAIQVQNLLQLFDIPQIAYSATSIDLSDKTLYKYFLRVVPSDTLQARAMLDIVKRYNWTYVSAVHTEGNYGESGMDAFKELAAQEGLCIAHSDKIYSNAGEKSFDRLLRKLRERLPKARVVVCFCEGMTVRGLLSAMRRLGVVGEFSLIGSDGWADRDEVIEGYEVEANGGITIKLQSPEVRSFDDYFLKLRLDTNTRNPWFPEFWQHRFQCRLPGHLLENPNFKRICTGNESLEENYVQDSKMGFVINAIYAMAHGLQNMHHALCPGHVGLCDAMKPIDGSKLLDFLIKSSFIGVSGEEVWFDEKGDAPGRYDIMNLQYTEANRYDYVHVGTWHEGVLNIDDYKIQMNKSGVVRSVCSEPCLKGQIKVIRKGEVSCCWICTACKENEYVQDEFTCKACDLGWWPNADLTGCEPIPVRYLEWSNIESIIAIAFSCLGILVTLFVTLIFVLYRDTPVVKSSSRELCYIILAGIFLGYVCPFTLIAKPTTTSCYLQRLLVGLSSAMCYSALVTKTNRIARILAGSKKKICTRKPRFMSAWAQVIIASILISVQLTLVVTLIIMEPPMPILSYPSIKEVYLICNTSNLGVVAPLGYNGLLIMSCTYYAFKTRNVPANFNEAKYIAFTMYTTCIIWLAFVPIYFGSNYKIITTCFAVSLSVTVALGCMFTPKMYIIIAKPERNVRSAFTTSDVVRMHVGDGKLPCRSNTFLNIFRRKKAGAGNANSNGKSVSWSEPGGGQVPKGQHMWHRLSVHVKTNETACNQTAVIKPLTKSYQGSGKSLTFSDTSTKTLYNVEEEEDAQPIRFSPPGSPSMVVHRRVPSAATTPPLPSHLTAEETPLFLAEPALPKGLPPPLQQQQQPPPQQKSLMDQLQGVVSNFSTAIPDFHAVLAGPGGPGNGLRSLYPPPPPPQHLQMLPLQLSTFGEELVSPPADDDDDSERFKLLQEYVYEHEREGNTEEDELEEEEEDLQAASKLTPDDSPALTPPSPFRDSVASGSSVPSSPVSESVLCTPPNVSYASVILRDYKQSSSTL

The Ki is a dissociation constant, usually derived from enzyme kinetics or from competition with a known ligand. For `N[C@@H](Cn1oc(=O)[nH]c1=O)C(=O)O` [2-amino-3-(3,5-dioxo[1,2,4]oxadiazolidin-2-yl)propionic acid], the Ki is 30 nM.

Values taken from BindingDB's records for doi:10.1046/j.1471-4159.1996.67010058.x (Cns Research, 1996).
